Data from US20250312323A1 (Cavion, Inc., priority 2018, published 2025).

System: patients with essential tremor
Test: T-CALM: TETRAS performance subscale, investigator rated
Details: Day 15, N 39

## CC(C)c1ccc(CC(=O)N[C@H](C)c2ccc(OCC(F)(F)F)cn2)cc1 [CX-8998]
  Subjects with improvement of at least 5 points by TETRAS-PS score, number: 12
